The values that follow come from US20040186081A1, “Naaladase inhibitors for treating opioid tolerance” (Guilford Pharmaceuticals Inc., priority 2003, published 2004).

Chains of the proteins cited; added tags and fusions are not shown.
UniProt Q04609, whole entry: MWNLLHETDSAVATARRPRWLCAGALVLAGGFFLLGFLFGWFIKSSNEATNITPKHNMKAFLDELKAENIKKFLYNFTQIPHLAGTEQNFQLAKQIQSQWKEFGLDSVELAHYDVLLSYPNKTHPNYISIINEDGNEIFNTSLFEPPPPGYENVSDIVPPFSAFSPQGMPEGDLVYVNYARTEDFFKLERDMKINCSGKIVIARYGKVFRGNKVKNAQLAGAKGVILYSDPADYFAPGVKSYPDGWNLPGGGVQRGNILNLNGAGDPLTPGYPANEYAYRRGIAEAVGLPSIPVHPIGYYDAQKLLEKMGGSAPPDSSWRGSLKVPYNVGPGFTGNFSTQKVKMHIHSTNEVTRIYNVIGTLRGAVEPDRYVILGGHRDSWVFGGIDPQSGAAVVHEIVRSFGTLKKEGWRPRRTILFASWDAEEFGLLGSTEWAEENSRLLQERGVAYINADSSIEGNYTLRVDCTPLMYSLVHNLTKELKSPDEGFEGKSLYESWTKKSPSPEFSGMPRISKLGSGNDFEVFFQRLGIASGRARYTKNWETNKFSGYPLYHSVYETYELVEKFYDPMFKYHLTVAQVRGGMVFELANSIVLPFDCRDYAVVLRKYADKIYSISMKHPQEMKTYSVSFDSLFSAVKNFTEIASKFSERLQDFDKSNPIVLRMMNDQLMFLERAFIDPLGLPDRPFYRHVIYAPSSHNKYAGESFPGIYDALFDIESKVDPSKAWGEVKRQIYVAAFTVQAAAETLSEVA

For orientation: IC50 means the point on the concentration scale where inhibition reaches its midpoint. A higher IC50 goes with lower potency.

For this assay, the target named is NAALADase (Homo sapiens, UniProt Q04609). The experiment in a line: In vitro inhibition of NAALADase activity. The format is biochemical.

The compound `O=C(O)c1cccc(OC(CCCS)C(=O)O)c1` (centres unmarked) [3-(1-carboxy-4-mercaptobutoxy)-benzoic acid] showed a half-inhibitory concentration (IC50) of 0.0163 µM. This lies in the double-digit nanomolar range.
Regarding `O=C(O)c1cc(CS)ccc1OCc1ccccc1` [5-(mercaptomethyl)-2-(phenylmethoxy)-benzoic acid], the IC50 stood at 0.085 µM.
